Experiments:
[1] = tested on: recurrent or metastatic HNSCC; conditions: cetuximab monotherapy, platinum-resistant HNSCC; 95% CI 7–21; cited from earlier work
[2] = tested on: patients with recurrent or metastatic HNSCC; assay: adverse events graded by NCI-CTCAE version 4.0, all cycles of treatment; conditions: ten patients

In the case of cetuximab, the overall tumour response [1] is listed as 13% and the “paronychia attributable to cetuximab, patients” value [2] is listed as 32%.
